By UniProt entry, the sequences of proteins in these tests, tags left out.
UniProt P31645, whole entry: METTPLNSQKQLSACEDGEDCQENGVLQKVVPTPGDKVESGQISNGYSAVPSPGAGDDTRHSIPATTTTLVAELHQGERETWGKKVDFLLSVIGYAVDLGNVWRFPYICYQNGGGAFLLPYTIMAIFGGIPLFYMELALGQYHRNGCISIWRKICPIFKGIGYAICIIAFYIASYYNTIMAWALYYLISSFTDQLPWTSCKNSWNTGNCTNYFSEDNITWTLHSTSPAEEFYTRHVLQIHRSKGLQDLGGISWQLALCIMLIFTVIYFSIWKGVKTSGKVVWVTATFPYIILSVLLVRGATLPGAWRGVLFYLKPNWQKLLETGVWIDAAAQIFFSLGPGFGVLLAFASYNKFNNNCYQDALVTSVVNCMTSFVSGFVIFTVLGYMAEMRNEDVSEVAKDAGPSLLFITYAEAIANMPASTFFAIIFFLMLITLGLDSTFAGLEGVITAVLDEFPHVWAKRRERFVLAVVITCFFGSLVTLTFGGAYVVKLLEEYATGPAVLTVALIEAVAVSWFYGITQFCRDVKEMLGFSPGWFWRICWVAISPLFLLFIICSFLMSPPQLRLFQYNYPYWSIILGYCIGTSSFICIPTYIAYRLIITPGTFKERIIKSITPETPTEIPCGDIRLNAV

In paper PMC8657982, “Overlap and Specificity in the Substrate Spectra of Human Monoamine Transporters and Organic Cation Transporters 1, 2, and 3” (International Journal of Molecular Sciences, 2021):

Target: SERT (Homo sapiens, UniProt P31645)
Assay: Uptake into HEK293 cells overexpressing SERT (uptake ratio and concentration-dependent uptake);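 further: incubation at 37 °C, intracellular compound quantified by HPLC-MS/MS after cell lysis, uptake normalized to total protein measured by bicinchoninic acid assay; ratio of uptake in SERT cells over empty-vector control cells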

With CC(Cc1ccc(O)cc1)NCC(O)c1cc(O)cc(O)c1 (stereo not shown) [Fenoterol, reference compound] the “Uptake Ratio by Transporter SERT” value was 1.34.
